Laboratory results as given in PubChem BioAssay AID995 (National Center for Advancing Translational Sciences (NCATS), 2007).
Several values for one entry are separate records, joined by “and”; a condition that tells them apart may be missing. Identical values can stand only once. Only a part is listed here, and it is no random draw. Records with an inconclusive call do not appear. Activity calls are given as the source filed them. Calls follow the shape of the dose curve; as a rule, active = well fitted inhibition curve with a large enough effect; inconclusive = small, poorly fitted or top-dose-only effect; inactive = no such curve, though single readings can be large or run the other way.

experiment: qHTS Assay for Inhibitors of the ERK Signaling Pathway using a Homogeneous Screening Assay; details: HEK293-V1b, vasopressin-stimulated pERK AlphaScreen; at 57.5 µM (top of the series) unless noted; also: nearly all actives have a fitted effect of over 55% in size
% is scaled to controls: 0 for no effect and ±100 for the full control effect.

Row | SMILES | activity, negative = inhibition
1 | CCOP1(=S)c2c(C)nn(CCC#N)c2N=C(c2ccc(F)cc2)N1C (centres undefined) | inactive: -10.4%
2 | O=P(Nc1nccs1)(c1ccccc1)c1nc2ccccc2s1 (centres undefined) | inactive: -5.13%
3 | CCOP1(=S)c2c(C)nn(CCC#N)c2N=C(c2ccccc2F)N1C (centres undefined) | inactive: 9.66%
4 | O=[As](O)(O)c1ccc([As](=O)(O)O)cc1 | inactive: 14.7% [at 11.5 µM]
5 | NS(=O)(=O)Cc1ccc([As](=O)(O)O)cc1 | inactive: -4.37% [at 11.5 µM]
6 | O=C(CC(=O)c1ccccc1)O[C@H]1CN2CCC1CC2 | inactive: -6.66% [at 11.5 µM]
7 | CN(C(=O)Cc1ccc(Cl)c(Cl)c1)[C@@H]1CC[C@@]2(CCCO2)C[C@H]1N1CCCC1 | inactive: 5.88%
8 | CN(C(=O)Cc1ccc(Cl)c(Cl)c1)[C@@H]1CCCC[C@H]1N1CCCC1 | inactive: 9.84% [middle of 4 runs]
9 | CN(CCCl)Cc1cc(Cl)c(NC2=NCCN2)c(Cl)c1 | inactive: 7.91%
10 | O=P1(Nc2ccccn2)COc2ccccc2OC1 | inactive: -24.8%
11 | Clc1n[nH]nc1-c1nn[nH][15n]1 | inactive: -4.53%
12 | O=P1(Nc2ncccn2)COc2ccccc2OC1 | inactive: -13.4%
13 | O=P1(Nc2ccc(Br)cn2)COc2ccccc2OC1 | inactive: 49%
14 | Cc1nn(-c2ccccc2)c2c1P(=O)(N1CCOCC1)N(C)C(c1ccccc1)=N2 (centres undefined) | inactive: 9.75%
15 | CN(N=O)C(=N)N[N+](=O)[O-] | inactive: 6.19%
16 | COP1(=S)c2c(C)nn(CCC#N)c2N=C(c2ccc(F)cc2)N1C (centres undefined) | inactive: -4.06%
17 | O=C(COc1ccccc1)OC1CN2CCC1CC2 (centres undefined) | inactive: -13%
18 | O=C(O)[C@@H](O)c1ccc([As](=O)(O)O)cc1 | inactive: -5.58% [at 11.5 µM]
19 | O=C(OC1CN2CCC1CC2)C12CC3CC(CC(C3)C1)C2 (centres undefined) | inactive: -8.47%
20 | NC(=O)Nc1cc([As](=O)(O)O)cc(I)c1O | inactive: -21.7% [at 11.5 µM]

Row | SMILES | activity, negative = inhibition
21 | [N-]=[N+]=NCC(N)=O | inactive: -11.3% [at 11.5 µM]
22 | O=[As]c1ccc(S(=O)(=O)NCCO)cc1 (centres undefined) | inactive: 24.9% [at 11.5 µM]
23 | [N-]=[N+]=NCC(O)CN=[N+]=[N-] (centres undefined) | inactive: 0.805% [at 11.5 µM]
24 | C(Cc1nn[nH]n1)c1nn[nH]n1 | inactive: -8.14% [at 11.5 µM]
25 | CN(C(=O)Cc1ccc(Cl)c(Cl)c1)[C@H]1CCCC[C@@H]1N1CCCC1 | inactive: 19.7% and inactive: 7.26% and inactive: 19.4%
26 | NCC[C@@H](N)CSP(=O)(O)O | inactive: 2.86% [at 11.5 µM]
27 | O=[N+]([O-])c1ccc(C[As](=O)(O)O)cc1 | inactive: -16.3% [at 11.5 µM]
28 | O=C(CO)Nc1ccc([As](=O)(O)O)cc1 | inactive: 4.14% [at 11.5 µM]
29 | CCc1nc2c(n1)c1c(non1O)c1c2no[n+]1[O-] | inactive: 13.8%
30 | CN(C(=O)Cc1ccccc1)[C@@H]1CC[C@@]2(CCCO2)C[C@H]1N1CCCC1 | inactive: 19.2%
31 | O=C(OC1CN2CCC1CC2)c1cccc(Cl)c1 (centres undefined) | inactive: -19%
32 | Cc1cc([N+](=O)[O-])cc([N+](=O)[O-])c1O | inactive: -14.4%
33 | [N-]=[N+]=Nc1ccc([As](=O)(O)O)cc1 | inactive: 6.74% [at 11.5 µM]
34 | CN1CCC[C@H](OC(=O)C(c2ccccc2)c2ccccc2)C1 | inactive: 3.77% [at 11.5 µM]
35 | C[C@@H](O)COc1ccc([As](=O)(O)O)cc1N | inactive: -20.3% [at 11.5 µM]
36 | O=P(Nc1nccs1)(c1ccccc1)c1ccccc1 | inactive: 3.17%
37 | c1nnnn1CCn1cnnn1 | inactive: 12.5%
38 | O=P1(Nc2nc3ccc(Cl)cc3s2)COc2ccccc2O1 (centres undefined) | inactive: -19.8%
39 | COC(=O)c1cc2c(s1)N=C(c1ccccc1)N(C)P2(=O)N1CCOCC1 (centres undefined) | inactive: 5.77%
